miR-21 reporter: raises the signal of a miR-21 reporter | HeLa miR-21 FLuc reporter, luciferase, 48 h | Potency, µM (highest dose often 38.3 µM), for inactives: at the highest dose reporter change, positive = more light | 340,000 tested, under 10 active | AID 2288; active = well fitted rising curve with a large enough effect; inconclusive = small, poorly fitted or top-dose-only effect; inactive = no such curve, though single readings can be large or run the other way;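 also: % of control where 0% means no effect; miR-21 action dims this reporter so a rising signal means less miR-21 action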
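HeLa cells stably expressing CMV-driven firefly luciferase with a downstream miR-21 binding sequence, endogenously expressing miR-21, were treated with titrations (up to about 40uM final) for 48 hours at 37 degree Celsius. Luciferase luminescence was read after lysis.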
A549 viability: kills or reduces viability of A549 cells in Nrf2 counter-screen; A549 ARE-Fluc cells, CellTiter-Fluor viability, 18-24 h; Potency, µM (doses to about 46 µM), inactives show top-dose activity change, negative = cytotoxicity, hits mostly inhibitors; 390,000 tested, 0.16% active; AID 504648; note: potency is the fitted concentration of half-maximal effect; % is set by controls: 0 for no effect and ±100 for the full control effect
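A549 ARE_Fluc cells in 5% FBS OPTI-MEM were exposed to compounds in concentration-response for 18-24 h at 37 deg C. Viability was read by CellTiter-Fluor fluorescence (Ex 405/Em 525) after 30 min, before the luciferase read.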
p53 reactivation: re-activators of mutant p53. H1299 p53-A138V BP100-luciferase reporter, luminescence, 24 h. Potency, µM (doses to about 92.2 µM), inactives show top-dose activity change, positive = activation, most hits filed as activators. 320,000 tested, 0.063% active. AID 504706; note: potency is the fitted concentration of half-maximal effect; % of control where 0% means no effect; nearly all actives have a fitted effect of over 45% in size
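H1299 (p53-null), stable ts p53-A138V + BP100-Luc; 1000 cells/well, Opti-MEM/10% FBS; cpd 4 pt, 1:5; 24 h, 37 deg C, 5% CO2; detection reagent 10 min RT; luminescence.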
ClpP mod: qHTS Assay for Activators of ClpP | Potency, µM (series often up to 57.5 µM), for the others: at the highest dose activity change, negative = active | 340,000 tested, 1.9% active | purified B. subtilis ClpP, FRET peptide cleavage, 20 min | ATP-dependent Clp protease proteolytic subunit (Bacillus subtilis (strain 168)), P80244; active = well fitted falling curve with a large enough effect; inconclusive = small, poorly fitted or top-dose-only effect; inactive = no such curve, though single readings can be large or run the other way; note: potency is the fitted concentration of half-maximal effect; the source files actives as falling curves though it sought activators and does not explain the sign; nearly all actives have a fitted effect of over 65% in size
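ClpP 10 microg/mL final, pH 8 Tris/KCl buffer with BSA, glycerol, Tween-20; compound pinned in; FRET-FV substrate; RT 20 min; Ex320/Em430; ΔFRET vs ADEP 5.8 microM, DMSO, no enzyme.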
Nrf2 inh: inhibitors of Nrf2 signaling. 360,000 tested, 2.1% active. A549 ARE-Fluc reporter, luciferase luminescence, 18-24 h. Potency, µM (top dose mostly 46 µM), without a hit: at the highest dose activity change, negative = inhibition, actives largely listed as inhibitors. AID 504444; note: potency is the fitted concentration of half-maximal effect; % is set by controls: 0 for no effect and ±100 for the full control effect; nearly all actives have a fitted effect of over 60% in size
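Reporter: ARE-Fluc in A549. Exposure: 18-24 h, 37 °C, 5% CO2, 5% FBS OPTI-MEM. Readouts: fluorescent cytotoxicity (CellTiter-Fluor), then luminescent Nrf2 signal after BugLite.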
Nrf2 ARE act: activators of Nrf2 (ARE) signaling; Potency, µM (series often up to 46.1 µM), inactives show at the top dose activation, hits mostly activators; 410,000 tested, 0.31% active; AREc32 ARE-luciferase reporter (MCF7-derived line), luminescence, 24 h; note: potency is the fitted concentration of half-maximal effect; % of control where 0% means no effect; nearly all actives have a fitted effect of over 65% in size
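Luciferase luminescence (Steady-Glo, 30 min at room temperature) served as the read-out of ARE activation in AREc32 cells treated with compounds for 24 hr at 37 deg C.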
* = called active by the depositor; u = inconclusive; x = no result. A selection: hits, their analogues and other compounds. The true share with any hit is near 3.7%. Unless noted, calls come from the whole dose curve; as a rule, active = well fitted curve in the direction sought with a large enough effect; inconclusive = small, poorly fitted or top-dose-only effect, or another doubt; inactive = no such curve, though single readings can be large; an effect the other way counts as inactive or inconclusive.

The chains behind the UniProt entries cited, without tags or fusion partners.
ATP-dependent Clp protease proteolytic subunit (Bacillus subtilis (strain 168)), P80244, UniProt P80244, whole entry, looked up: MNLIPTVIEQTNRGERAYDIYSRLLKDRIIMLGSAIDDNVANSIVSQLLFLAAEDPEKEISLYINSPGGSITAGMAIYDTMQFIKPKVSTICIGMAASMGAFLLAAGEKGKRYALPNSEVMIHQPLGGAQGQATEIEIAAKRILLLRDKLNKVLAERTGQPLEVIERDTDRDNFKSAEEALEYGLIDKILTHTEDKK

Molecule	p53 reactivation	Nrf2 inh	ClpP mod	Nrf2 ARE act	miR-21 reporter	A549 viability
CC1CC(C)CN(C(=S)Nc2ccc(SC(F)F)cc2)C1 (stereo not given)	u	-25%	28µM*	0%	0%	-4%
Cc1coc2c1c(C)cc1oc(=O)c(CC(=O)NCc3ccc(Cl)cc3)c(C)c12	x	-8%	4%	0%	9%	2%
CCN(CC)S(=O)(=O)c1cc(NC(=O)CSc2nc3c(cc2C#N)C(=O)CC(C)(C)C3)ccc1C	7%	18µM*	-1%	8%	-1%	u
CC(C)N(C(=O)[C@H]1C[C@H](CC(=O)NCC23CC4CC(CC(C4)C2)C3)C(=O)N2CCc3c([nH]c4ccc(Cl)cc34)[C@]12C)C(C)C	-2%	u	2%	-1%	x	u
O=C(COc1ccccc1)NS(=O)(=O)c1ccc(Cl)cc1	2%	-1%	-1%	0%	-6%	-3%
CC(=O)Nc1cccc(OCC(=O)NS(=O)(=O)c2ccc(Cl)cc2)c1	-2%	x	32µM*	-1%	-5%	-5%
CCc1ccc(-n2c(C)nc3cc(C(=O)NCCc4ccccc4)ccc32)cc1	x	x	-1%	0%	0%	2%
Cc1cc2n(n1)C(c1c[nH]c3ccccc13)Nc1ccccc1-2 (stereo not given)	-5%	2%	22µM*	17%	-9%	-3%
Cc1cc2n(n1)C(c1ccco1)Nc1ccccc1-2 (stereo not given)	9%	-5%	u	9%	-13%	-4%
Cc1cc2n(n1)C(c1cn(-c3ccccc3)nc1C)Nc1ccccc1-2 (stereo not given)	5%	14%	2.5µM*	2%	0%	1%
COc1ccc(C2c3c(nc(CCc4ccccc4)[nH]c3=O)Oc3ccc4ccccc4c32)cc1OC (stereo not given)	x	6%	x	x	x	5%
CCc1c2c(nc3ccc4c(c13)OCCO4)-c1nc3ccccc3c(=O)n1C2	x	0.26µM*	x	x	x	3%
COc1ccc(C(=O)CC(Nc2ccc([N+](=O)[O-])cc2)c2ccc(Cl)cc2)cc1 (stereo not given)	3%	6.5µM*	-2%	1%	30%	u
COc1ccc(C(=O)CC(=O)C(=O)Nc2ccc(Cl)cc2)cc1	23%	6%	x	2%	-13%	0%
Oc1ccc(N=Nc2ccc3c(c2)OCCO3)c2ncccc12	15%	18µM*	1%	11%	8%	u

Copied from the list.
Reading for CCN(CC)S(=O)(=O)c1cc(NC(=O)CSc2nc3c(cc2C#N)C(=O)CC(C)(C)C3)ccc1C under Nrf2 ARE act: 8%
Reading for COc1ccc(C(=O)CC(Nc2ccc([N+](=O)[O-])cc2)c2ccc(Cl)cc2)cc1 (stereo not given) under miR-21 reporter: 30%

(cont.)
Molecule	p53 reactivation	Nrf2 inh	ClpP mod	Nrf2 ARE act	miR-21 reporter	A549 viability
Cc1cccc(N=Nc2ccc(O)c3ncccc23)c1	u	u	-1%	u	u	-27%
O=C(c1ccc2c(c1)N(Cc1ccccc1Cl)C(=O)c1ccccc1S2)N1CCCC1	x	x	-4%	5%	10%	-5%
O=C(c1ccc2c(c1)N(Cc1c(F)cccc1Cl)C(=O)c1ccccc1S2)N1CCCC1	x	10µM*	1%	4%	6%	u
Cn1c(/C(C#N)=C(\O)c2ccc(Br)s2)nc2ccccc21	26%	u	-1%	2%	-4%	25%
Cn1c(/C(C#N)=C(\O)c2cc(Cl)sc2Cl)nc2ccccc21	7%	2%	3%	1.4µM*	2%	3%
COc1ccc(S(=O)(=O)N2CCCCC2)cc1NC(=O)COC(=O)c1ccco1	2%	2%	5%	0%	x	-2%
COc1ccc(S(=O)(=O)N2CCCCC2)cc1NC(=O)c1ccco1	-3%	10%	16µM*	0%	0%	1%
COc1ccc(S(=O)(=O)N2CCCC2)cc1OC	9%	10%	x	0%	-10%	3%
COc1ccc(CC(=O)Nc2ccccc2C(C)=O)cc1S(=O)(=O)N1CCOCC1	-4%	-11%	35µM*	0%	x	12%
COc1ccc(S(=O)(=O)N2CCOCC2)cc1NC(=O)Cc1ccsc1	-6%	-8%	20µM*	0%	x	0%
COc1ccc2cc(S(=O)(=O)N3CCCCC3)ccc2c1S(=O)(=O)N1CCCCC1	-7%	16µM*	0%	0%	17%	-10%
CC(C)Oc1ccc(S(=O)(=O)N2CCOCC2)cc1NC(=O)Cc1ccsc1	-3%	u	-1%	0%	x	-14%
Cc1cc(NC(=O)N2CC=C(c3c[nH]c4ccccc34)CC2)ccc1Br	x	-19%	-15%	6%	5%	4%
O=C(Cc1ccccc1Cl)NO	x	x	-1%	x	x	x
O=S1(=O)CC(N2CCC(c3ccccc3)CC2)CN1Cc1ccccc1 (stereo not given)	x	x	0%	-1%	x	x

Only ClpP mod and miR-21 reporter, for some of the entries so far:
smiles,ClpP mod,miR-21 reporter
Cn1c(/C(C#N)=C(\O)c2cc(Cl)sc2Cl)nc2ccccc21,3%,2%
O=C(c1ccc2c(c1)N(Cc1c(F)cccc1Cl)C(=O)c1ccccc1S2)N1CCCC1,1%,6%
CC(C)Oc1ccc(S(=O)(=O)N2CCOCC2)cc1NC(=O)Cc1ccsc1,-1%,x
Cn1c(/C(C#N)=C(\O)c2ccc(Br)s2)nc2ccccc21,-1%,-4%
Cc1cccc(N=Nc2ccc(O)c3ncccc23)c1,-1%,u

The list continues.
Molecule	p53 reactivation	Nrf2 inh	ClpP mod	Nrf2 ARE act	miR-21 reporter	A549 viability
Cc1ccc(NC(=O)c2ccc(N/N=C/c3cccc(O)c3)c([N+](=O)[O-])c2)cc1	6%	18µM*	0%	3%	-6%	u
C=CCN(c1ccc(F)cc1)S(=O)(=O)c1cc(C(=O)NC2CCC(O)CC2)ccc1Cl (stereo not given)	0%	16µM*	-2%	-1%	x	8%
C=CCN(c1ccccc1)S(=O)(=O)c1cc(C(=O)NC2=NCCS2)ccc1Cl	3%	3%	-2%	-1%	1%	5%
CC(C)(C)OC(=O)Cc1nnc(C(C(=O)OCc2ccccc2)c2ccccc2)s1 (stereo not given)	x	8%	x	x	x	2%
O=S(=O)(c1ccc2c(c1)nc(COc1ccc(Cl)cc1)n2CC1CCCO1)N1CCOCC1 (stereo not given)	-1%	10µM*	-3%	2%	6%	-19%
CCCCn1c(CCl)nc2cc(S(=O)(=O)N3CCOCC3)ccc21	-5%	-9%	-5%	9%	x	-8%
Cc1c(Cl)sn(-c2ccc(Cl)cc2)c1=O	-7%	26µM*	x	0%	u	u
Cc1nn(-c2ccc(Cl)cc2)c(=O)c2ccccc12	20%	u	0%	20%	-60%	9%
CCCCOc1ccc(-c2nnn(CC(=O)Nc3ncc(CC(=O)OCC)s3)n2)cc1	-4%	u	-3%	1%	-4%	u
CCOC(=O)Cc1cnc(NC(=O)Cn2nnc(-c3ccc(OCC)cc3)n2)s1	-2%	3%	22µM*	3%	-4%	1%
CCOc1ccc(-c2nnn(CC(=O)c3cc(OC)ccc3OC)n2)cc1	-1%	u	32µM*	0%	-9%	u
Nc1ccc2c(c1)C(=O)N(CCCCCC(=O)O)C2	3%	-3%	16µM*	-1%	-3%	-1%
COc1ccc(Cc2nnc(NC(=O)Cc3cccs3)s2)cc1OC	-14%	-9%	28µM*	3%	-9%	-2%

Assay outcomes as filed in PubChem BioAssay.
